ChEMBL document CHEMBL5321195, “Exploring the Effect of Halogenation in a Series of Potent and Selective A2B Adenosine Receptor Antagonists” (J Med Chem, 2023)

Molecular target: Adenosine receptor A2a (Homo sapiens) (UniProt P29274)
Assay: Displacement of [3H]DPCPX from human A2AAR expressed in human HeLa cell membrane at 1 uM incubated for 30 mins by competitive binding assay relative to control
Type: cell membranes

Q: Which Activity does the source give for `CCOC(=O)C1=C(C)Nc2nc3ccccc3n2C1c1cocn1` (stereo unspecified) here?
A: 11%
